Results taken from US6984513B2, “Anaerobe targeted enzyme-mediated prodrug therapy” (priority 1994, dated 2006).

Tested on: SCCVII cells
Assay: Cytotoxicity of 5-FC to SCCVII cells with extract of tumors from mice injected with recombinant C. sporogenes spores
Conditions: SCCVII cells incubated with 5-FC plus tumor extract for two days

## Nc1nc(=O)[nH]cc1F [5-FC, 5-fluorocytosine]
  increase in cytotoxicity of 5-FC by tumor extract (factor): approximately 10^3
